As usually defined, the IC50 is the concentration at which inhibition is half-maximal.

Amino acid sequences for entries named in this document (tags omitted). Residues count along the entry.
UniProt Q5S007, 970-2527 G2019S limits assumed: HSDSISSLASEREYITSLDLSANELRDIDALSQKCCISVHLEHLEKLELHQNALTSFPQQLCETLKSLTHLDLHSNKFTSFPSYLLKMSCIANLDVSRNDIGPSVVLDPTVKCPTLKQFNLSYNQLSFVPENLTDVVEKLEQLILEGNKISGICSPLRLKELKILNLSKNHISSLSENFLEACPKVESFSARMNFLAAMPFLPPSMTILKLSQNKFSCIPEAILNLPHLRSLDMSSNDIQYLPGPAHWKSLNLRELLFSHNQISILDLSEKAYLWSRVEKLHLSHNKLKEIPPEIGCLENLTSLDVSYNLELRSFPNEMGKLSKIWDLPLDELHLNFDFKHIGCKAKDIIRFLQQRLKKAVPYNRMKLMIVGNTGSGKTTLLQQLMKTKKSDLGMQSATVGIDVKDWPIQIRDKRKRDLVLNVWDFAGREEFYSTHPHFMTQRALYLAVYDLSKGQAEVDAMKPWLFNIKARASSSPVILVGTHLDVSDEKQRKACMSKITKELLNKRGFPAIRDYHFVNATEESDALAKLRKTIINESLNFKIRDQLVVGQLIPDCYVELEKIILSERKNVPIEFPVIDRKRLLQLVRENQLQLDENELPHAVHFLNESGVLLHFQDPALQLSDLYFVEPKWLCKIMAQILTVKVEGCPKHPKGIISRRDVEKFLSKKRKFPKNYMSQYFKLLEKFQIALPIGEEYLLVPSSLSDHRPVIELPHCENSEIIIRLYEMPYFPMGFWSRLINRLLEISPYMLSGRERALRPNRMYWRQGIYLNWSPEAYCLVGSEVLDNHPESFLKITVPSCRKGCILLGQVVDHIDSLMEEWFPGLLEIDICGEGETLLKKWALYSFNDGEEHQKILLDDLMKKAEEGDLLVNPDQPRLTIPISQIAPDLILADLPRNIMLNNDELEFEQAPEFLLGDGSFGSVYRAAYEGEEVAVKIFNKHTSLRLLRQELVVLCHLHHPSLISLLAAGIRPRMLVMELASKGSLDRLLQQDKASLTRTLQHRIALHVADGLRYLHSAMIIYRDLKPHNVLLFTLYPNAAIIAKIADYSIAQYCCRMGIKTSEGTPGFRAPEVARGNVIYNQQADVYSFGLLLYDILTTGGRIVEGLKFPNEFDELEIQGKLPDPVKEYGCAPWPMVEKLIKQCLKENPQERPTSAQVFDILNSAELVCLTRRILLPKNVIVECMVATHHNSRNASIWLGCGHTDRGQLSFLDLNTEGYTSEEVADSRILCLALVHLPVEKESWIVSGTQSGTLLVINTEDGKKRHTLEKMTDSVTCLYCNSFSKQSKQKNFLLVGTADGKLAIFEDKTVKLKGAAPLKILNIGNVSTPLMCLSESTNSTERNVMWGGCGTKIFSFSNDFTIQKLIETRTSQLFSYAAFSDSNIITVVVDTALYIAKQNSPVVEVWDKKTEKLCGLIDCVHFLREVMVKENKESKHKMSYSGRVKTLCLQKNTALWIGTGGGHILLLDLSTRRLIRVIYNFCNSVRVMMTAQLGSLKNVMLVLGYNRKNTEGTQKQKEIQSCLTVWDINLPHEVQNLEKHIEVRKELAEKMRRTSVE

The record followed here is US9493440B2, “Compounds inhibiting leucine-rich repeat kinase enzyme activity” (Merck Sharp & Dohme Corp., priority 2013, dated 2016).

This assay deals with LRRK2(G2019S mutation, GST-LRRK2(amino acids 970-2527)) (Homo sapiens (Human), UniProt Q5S007, G2019S). The experiment in a line: LRRK2 Km ATP LanthaScreen Assay. To be noted: read-out: LRRK2 IC50, mean IC50. For orientation: Time-resolved FRET reads energy transfer from a long-lived donor to a nearby acceptor.
Consider `C[C@@H]1CN(c2cc(-c3n[nH]c4ccc(OC5(C)CC5)cc34)ncn2)C[C@H](C)N1S(C)(=O)=O`, for which the half-maximal inhibitory concentration (IC50) is 5.2 nM.
Next, `OCC1(Oc2ccc3[nH]nc(-c4cc(N5CCOCC5)ncn4)c3c2)CC1`: 2.9 nM; `CC(O)[C@@H]1CN(c2cc(-c3n[nH]c4ccc(OC5(C)CC5)cc34)ncn2)CCO1` (stereo partly shown): 0.7 nM; `COC[C@@H]1CN(c2cc(-c3n[nH]c4ccc(OC5(C)CC5)cc34)ncn2)CCO1`: 1.9 nM.
Consider `COC(=O)C1(Oc2ccc3[nH]nc(-c4cc(N5CCOCC5)ncn4)c3c2)CC1`, for which the IC50 is 21.7 nM.
With `CN1CCN(c2cc(-c3n[nH]c4ccc(OC5(C)CC5)cc34)ncn2)CC12CC2`, the IC50 came out at 0.6 nM.
The result for `COCC1(Oc2ccc3[nH]nc(-c4cc(N5CCOCC5)ncn4)c3c2)CC1` reads 2.8 nM.
